These results are taken from ChEMBL document CHEMBL4414598, “Trifluorinated Pyrimidine-Based A2B Antagonists: Optimization and Evidence of Stereospecific Recognition” (J Med Chem, 2019).

For experiment [1], the target named is T1, Adenosine receptor A2b (Homo sapiens) (UniProt P29275).
T1 sequence (whole entry): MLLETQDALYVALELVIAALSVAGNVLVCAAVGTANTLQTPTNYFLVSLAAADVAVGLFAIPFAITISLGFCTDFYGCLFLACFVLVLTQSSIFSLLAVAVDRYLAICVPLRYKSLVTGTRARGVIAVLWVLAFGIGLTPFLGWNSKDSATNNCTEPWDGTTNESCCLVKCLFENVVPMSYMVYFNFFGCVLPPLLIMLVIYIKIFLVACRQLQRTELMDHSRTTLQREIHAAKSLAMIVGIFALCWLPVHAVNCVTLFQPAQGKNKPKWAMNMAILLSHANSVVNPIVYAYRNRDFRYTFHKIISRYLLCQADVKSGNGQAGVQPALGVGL
The experiment is described as follows: Displacement of [3H]DPCPX from human recombinant A2B receptor expressed in human HEK293 cell membranes at 1 uM incubated for 30 mins by radioligand binding competition assay relative to control. For orientation: Loss of bound radioactivity is the signal in a displacement assay; it reports binding, not function.

Experiment [2] is filed under the species Homo sapiens. Description: Selectivity index, ratio of Ki for displacement of [3H]NECA from human A3 receptor expressed in human HeLa cell membranes incubated for 180 mins by radioligand binding competition assay to Ki for displacement of [3H]DPCPX from human recombinant A2B receptor expressed in human HEK293 cell membranes at 1 uM incubated for 30 mins by radioligand binding competition assay.

Experiment [3] is filed under the species Homo sapiens. Description: Selectivity index, ratio of Ki for displacement of [3H]DPCPX from human recombinant A1 receptor expressed in CHOA1 cell membranes incubated for 60 mins by radioligand binding competition assay to Ki for displacement of [3H]DPCPX from human recombinant A2B receptor expressed in human HEK293 cell membranes at 1 uM incubated for 30 mins by radioligand binding competition assay.

For experiment [4], the species on record is Homo sapiens. Description: Selectivity index, ratio of Ki for displacement of [3H]ZM241385 from human recombinant A2A receptor expressed in human HeLa cell membranes incubated for 30 mins by radioligand binding competition assay to Ki for displacement of [3H]DPCPX from human recombinant A2B receptor expressed in human HEK293 cell membranes at 1 uM incubated for 30 mins by radioligand binding competition assay.

In the case of `CC1=C(C(=O)OCC(F)(F)F)[C@H](c2ccco2)n2c(nc3ccccc32)N1`, in experiment [1], the inhibition – broadly, the drop in the measured response relative to a control, in per cent – came out at 22%.
With `CCOC(=O)C1=C(C(F)(F)F)Nc2nc3ccccc3n2[C@H]1c1ccoc1`, the inhibition in experiment [1] was 19%.
Consider `CC1=C(C(=O)OC(C)C(F)(F)F)C(c2ccco2)n2c(nc3ccccc32)N1` (racemic), for which the Ratio Ki in the experiment listed under Homo sapiens [2], in the experiment listed under Homo sapiens [3] and in the experiment filed under Homo sapiens [4] was more than 1000 in each case.
With `CCOC(=O)C1=C(C(F)(F)F)Nc2nc3ccccc3n2C1c1ccoc1` (racemic), the Ratio Ki in the experiment filed under Homo sapiens [2], in the experiment listed under Homo sapiens [3] and in the experiment listed under Homo sapiens [4] was more than 1000 in each case.
Turning to `CC1=C(C(=O)OCC(F)(F)F)C(c2ccco2)n2c(nc3ccccc32)N1` (racemic), the Ratio Ki in the experiment listed under Homo sapiens [2], in the experiment listed under Homo sapiens [3] and in the experiment listed under Homo sapiens [4] was more than 1000 in each case.
